Results on two substances are retold here after paper PMC5101583, “Natural and non-natural amino-acid side-chain substitutions: affinity and diffraction studies of meditope–Fab complexes” (Acta Crystallographica. Section F, Structural Biology …, 2016).

The assay concerns the target cetuximab IgG. The assay is described as follows: SPR; Biacore T100; cetuximab IgG immobilised on a CM5 chip by amine coupling (~5000 RU); peptides as analytes at 30 µl/min in HBS-EP+ (10 mM HEPES pH 7.4, 150 mM NaCl, 3 mM EDTA, 0.05% surfactant P20); the paper estimates a 38% error in Kd.

Turning to “meditope variant F3(3-BrF), GQ(3-Br-F)… (peptide)”, the Kd is over 5.4 µM. The figure for “meditope variant F3(2-BrF), GQ(2-Br-F)… (peptide)” is 1500 µM.
